Values quoted from earlier work as cited in paper PMC10287555, “Camonsertib in DNA damage response-deficient advanced solid tumors: phase 1 trial results” (Nature Medicine, 2023).
Values joined by “and” are separate entries in the source; they are usually repeats but may differ in a detail not shown here. Equal entries are not always repeated.

Tested on: advanced solid tumors
Conditions: human, in vivo; cited from earlier work

C[C@@H]1COCCN1c1cc(-c2ccnn2C)c2ccnc(-c3ccn[nH]3)c2n1 [BAY1895344]
Patients with a response: 4/11 and 5/138
